Earlier results on 1 substance are cited in publication PMC8876114, “Cytotoxicity and anti-HIV activities of extracts of the twigs of Croton dichogamus Pax” (BMC Complementary Medicine and Therapies, 2022).

Common to all, as to conditions: cited from earlier work
The test system of data set [1] is HEP-G2.
Data set [2] concerns KATO-3.
For data set [3], the system named is BT-474.
In data set [4] the test system is SW-620.
The test system of data set [5] is CHAGO.

Regarding “14-ent-clerodadien-3-one [trans-cascarillone]”, the CC50 in data set [1] was 6370 µg/mL; in data set [2], 6780 µg/mL; in data set [3], 3260 µg/mL; in data set [4], 4440 µg/mL; in data set [5], 6670 µg/mL.
